Laboratory results: PubChem BioAssay AID1029 (Sanford-Burnham Center for Chemical Genomics, 2008)
The entries are a selection whose mix differs from that of the whole data set. The source made the active and inactive calls.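 The calls were made as follows: active = inhibition above the mean of the plate negative controls plus 5 SD (cut at about 13% in these data); inactive = the rest.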

Experiment: blockers of IgG-bead uptake by macrophages – imaging, J774A.1 cells, IgG beads, primary screen (AID 1029);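 also: phagocytic index as fraction of beads internalized from green versus red external bead signal; plate controls were DMSO negative control for no effect and cytochalasin-D positive control for full effect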
Settings: J774A.1 macrophage IgG-bead phagocytosis, at 5 µM, hits give high values
In the case of `COc1ccc(NC2CCN(CCc3ccccc3)CC2)c(OC)c1`, the inhibition is reported as inactive: -4.3%.
For `O=C(NCC1(N2CCOCC2)CCCCC1)c1cc2ccccc2o1`, the inhibition was inactive: 2.1%.
For `O=C(OC1CN2CCC1CC2)C1c2ccccc2Oc2ccccc21` (stereo not given), the inhibition was inactive: -0.3%.
In the case of `O=C(NCC1(N2CCOCC2)CCCCC1)c1cc(=O)[nH]c2ccccc12`, the inhibition is reported as inactive: 0.9%.
For `CN1CCN(CCOC(=O)C(O)(c2ccccc2)c2ccccc2)CC1`, the inhibition was inactive: -4.75%.
With `c1ccc(CN2CCC(Nc3ccccc3)CC2)cc1` the inhibition was inactive: -0.2%.
In the case of `N/C(=N\O)c1c(N)no[n+]1[O-]`, the inhibition is reported as inactive: 0.7%.
In the case of `O=C(OC1CN2CCC1CC2)C1c2ccccc2C=Cc2ccccc21` (stereo not given), the inhibition is reported as inactive: -1.64%.
With `CCOc1ncccc1C(=O)NCC1(N2CCOCC2)CCCCC1` the inhibition was inactive: 0.7%.
With `CCN1CCC(Nc2cccc(F)c2)CC1` the inhibition was inactive: -3.74%.
